Laboratory results taken from US20130315918A1 (published 2013).

Assays:
human VEGF (hVEGF) [1] = target: T1, human VEGF (hVEGF) (human, UniProt P15692 27-191)
murine VEGF (mVEGF) [2] = target: T2, murine VEGF (mVEGF) (mouse, UniProt Q00731 27-190)
T2 chain: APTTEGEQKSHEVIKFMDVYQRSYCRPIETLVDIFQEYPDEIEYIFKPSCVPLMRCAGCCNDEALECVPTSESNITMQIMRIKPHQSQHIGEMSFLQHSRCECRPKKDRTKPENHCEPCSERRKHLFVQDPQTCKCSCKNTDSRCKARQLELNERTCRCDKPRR

human VEGF (hVEGF) [3] = target: T1, human VEGF (hVEGF); assay: SPR
murine VEGF (mVEGF) [4] = target: T2, murine VEGF (mVEGF); assay: SPR
murine VEGF (mVEGF) [5] = target: T2, murine VEGF (mVEGF); assay: competition
human VEGF (hVEGF) [6] = target: T1, human VEGF (hVEGF); assay: competition
human VEGF (hVEGF) [7] = target: T1, human VEGF (hVEGF); assay: competition; remark: listed apart in the source
murine VEGF (mVEGF) [8] = target: T2, murine VEGF (mVEGF); assay: competition
human VEGF (hVEGF) [9] = target: T1, human VEGF (hVEGF); assay: competition; remark: listed apart in the source
murine VEGF (mVEGF) [10] = target: T2, murine VEGF (mVEGF); assay: competition
human VEGF (hVEGF) [11] = target: T1, human VEGF (hVEGF); assay: competition; remark: listed apart in the source
human VEGF (hVEGF) [12] = target: T1, human VEGF (hVEGF); assay: SPR; remark: listed apart in the source
murine VEGF (mVEGF) [13] = target: T2, murine VEGF (mVEGF); assay: SPR

B1: G6 Fab (Fab, V domains shown)
VH: EVQLVESGGGLVQPGGSLRLSCAASGFTISDYWIHWVRQAPGKGLEWVAGITPAGGYTYYADSVKGRFTISADTSKNTAYLQMNSLRAEDTAVYYCARFVFFLPYAMDYWGQGTLVTVSS
VL: DIQMTQSPSSLSASVGDRVTITCRASQDVSTAVAWYQQKPGKAPKLLIYSASFLYSGVPSRFSGSGSGTDFTLTISSLQPEDFATYYCQQSYTTPPTFGQGTKVEIKR
Question: Which Kd (human VEGF (hVEGF) [1]) does the source give for B1 here?
Answer: 1.3 nM

Question: What about the Kd (murine VEGF (mVEGF) [2]) of the same binder?
Answer: 1.1 nM

Question: And the Kd (human VEGF (hVEGF) [3])?
Answer: 1.6 nM

Question: What about the Kd (murine VEGF (mVEGF) [4]) of the same binder?
Answer: 0.7 nM

Question: And the IC50 (murine VEGF (mVEGF) [5])?
Answer: 0.6 nM

Question: What about the IC50 (human VEGF (hVEGF) [6]) of the same binder?
Answer: 2 nM

Question: And the IC50 (human VEGF (hVEGF) [7])?
Answer: 1.4 nM

Question: And the IC50 (murine VEGF (mVEGF) [8])?
Answer: 0.6 nM

Question: What about the IC50 (human VEGF (hVEGF) [9]) of the same binder?
Answer: 2.1 nM and 3.5 nM

Question: What about the IC50 (murine VEGF (mVEGF) [10]) of the same binder?
Answer: 0.6 nM

B2: G6-8 Fab (Fab, V domains shown)
VH: EVQLVESGGGLVQPGGSLRLSCAASGFTISDYWIHWVRQAPGKGLEWVAGITPAGGYTYYADSVKGRFTISADTSKNTAYLQMNSLRAEDTAVYYCARFVFFLPYAMDYWGQGTLVTVSS
VL: DIQMTQSPSSLSASVGDRVTITCRASQDVSTAVAWYQQKPGKAPKLLIYSASFLYSGVPSRFSGSGSGTDFTLTISSLQPEDFATYYCQQGAGSPLTFGQGTKVEIKR
Question: Which results are given for B2?
Answer: Kd (human VEGF (hVEGF) [1]): 0.45 nM; Kd (murine VEGF (mVEGF) [2]): 0.12 nM; IC50 (human VEGF (hVEGF) [11]): 0.11 nM; IC50 (murine VEGF (mVEGF) [5]): 0.06 nM; IC50 (human VEGF (hVEGF) [9]): 0.13 nM and 0.07 nM; IC50 (murine VEGF (mVEGF) [10]): 0.06 nM

B3: G6-31 Fab (Fab, V domains shown)
VH: EVQLVESGGGLVQPGGSLRLSCAASGFTISDYWIHWVRQAPGKGLEWVAGITPAGGYTYYADSVKGRFTISADTSKNTAYLQMNSLRAEDTAVYYCARFVFFLPYAMDYWGQGTLVTVSS
VL: DIQMTQSPSSLSASVGDRVTITCRASQDVSTAVAWYQQKPGKAPKLLIYSASFLYSGVPSRFSGSGSGTDFTLTISSLQPEDFATYYCQQGYGNPFTFGQGTKVEIKR
Question: What does the source list for B3?
Answer: Kd (human VEGF (hVEGF) [1]): < 0.09 nM; Kd (murine VEGF (mVEGF) [2]): < 0.06 nM; IC50 (human VEGF (hVEGF) [11]): 0.04 nM; IC50 (human VEGF (hVEGF) [9]): 0.04 nM and 0.02 nM; Kd (human VEGF (hVEGF) [12]): ~0.2 nM and ~0.4 nM; Kd (murine VEGF (mVEGF) [13]): ~0.06 nM and ~0.08 nM

B4: G6-23 Fab (Fab, V domains shown)
VH: EVQLVESGGGLVQPGGSLRLSCAASGFTISDYWIHWVRQAPGKGLEWVAGITPAGGYTYYADSVKGRFTISADTSKNTAYLQMNSLRAEDTAVYYCARFVFFLPYAMDYWGQGTLVTVSS
VL: DIQMTQSPSSLSASVGDRVTITCRASQDVSTAVAWYQQKPGKAPKLLIYSASFLYSGVPSRFSGSGSGTDFTLTISSLQPEDFATYYCKQGYANPWTFGQGTKVEIKR
Question: B4 was tested. Which Kd (human VEGF (hVEGF) [1]) did it give?
Answer: < 0.2 nM

Question: And the Kd (murine VEGF (mVEGF) [2])?
Answer: < 0.09 nM

Question: And the Kd (human VEGF (hVEGF) [3])?
Answer: < 0.2 nM

Question: What about the Kd (murine VEGF (mVEGF) [4]) of the same binder?
Answer: < 0.1 nM

Question: What about the IC50 (human VEGF (hVEGF) [9]) of the same binder?
Answer: 0.04 nM

Question: What about the Kd (human VEGF (hVEGF) [12]) of the same binder?
Answer: ~0.2 nM and ~0.6 nM

Question: And the Kd (murine VEGF (mVEGF) [13])?
Answer: ~0.2 nM and ~0.1 nM

“And” between values parts separate entries of the source, which are not always exact repeats. Equal values may be shown once. Read-outs that look alike come from different tables or passages of the source.
